Assay results as given in patent publication US20080233109A1 (IMMUNOKICK INCORPORATION, published 2008).

Biological target: T1, [^35S]-labeled MCM3 synthesized in vitro (UniProt P25206 1-812, limits assumed, radio-labeled with ^35S-methionine)
T1 construct: also called [^35S]-MCM3; in vitro translated MCM3
T1 sequence (looked up): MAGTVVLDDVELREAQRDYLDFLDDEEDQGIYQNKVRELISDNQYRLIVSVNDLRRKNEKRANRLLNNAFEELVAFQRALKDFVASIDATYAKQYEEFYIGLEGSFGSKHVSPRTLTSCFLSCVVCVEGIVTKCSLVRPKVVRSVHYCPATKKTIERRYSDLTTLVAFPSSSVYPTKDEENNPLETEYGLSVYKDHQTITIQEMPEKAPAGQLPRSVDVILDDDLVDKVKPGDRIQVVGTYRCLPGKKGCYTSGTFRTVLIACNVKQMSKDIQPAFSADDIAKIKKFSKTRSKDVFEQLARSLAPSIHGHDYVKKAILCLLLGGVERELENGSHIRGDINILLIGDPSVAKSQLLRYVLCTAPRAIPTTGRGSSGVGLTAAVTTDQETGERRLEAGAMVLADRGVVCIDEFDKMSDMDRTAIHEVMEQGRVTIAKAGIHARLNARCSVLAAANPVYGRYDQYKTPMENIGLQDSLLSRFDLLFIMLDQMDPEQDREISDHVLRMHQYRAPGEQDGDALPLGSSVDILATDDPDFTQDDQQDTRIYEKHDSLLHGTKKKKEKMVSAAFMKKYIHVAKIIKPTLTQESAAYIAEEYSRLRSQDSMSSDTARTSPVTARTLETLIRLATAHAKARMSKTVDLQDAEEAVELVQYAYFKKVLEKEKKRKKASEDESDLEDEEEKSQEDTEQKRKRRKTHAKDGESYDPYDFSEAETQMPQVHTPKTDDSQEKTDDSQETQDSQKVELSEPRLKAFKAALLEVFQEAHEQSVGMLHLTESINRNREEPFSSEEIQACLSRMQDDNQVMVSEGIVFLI
Experiment: GST pull-down of in vitro translated [35S]-MCM3, autoradiography

B1: GST alone (negative control) (other, UniProt P08515 1-218, looked up)
chain: MSPILGYWKIKGLVQPTRLLLEYLEEKYEEHLYERDEGDKWRNKKFELGLEFPNLPYYIDGDVKLTQSMAIIRYIADKHNMLGGCPKERAEISMLEGAVLDIRYGVSRIAYSKDFETLKVDFLSKLPEMLKMFEDRLCHKTYLNGDHVTHPDFMLYDALDVVLYMDPMCLDAFPKLVCFKKRIEAIPQIDKYLKSSKYIAWPLQGWQATFGGGDHPPK
notes: Negative control in the pull-down with in vitro translated MCM3
B1: no binding.
